Activity calls are given as the source filed them. No cut-off for these calls is given here.

Amino acid sequences for entries named in this document (tags omitted). A change or cut given only in a name is not applied to a line headed by its entry.
UniProt P41146: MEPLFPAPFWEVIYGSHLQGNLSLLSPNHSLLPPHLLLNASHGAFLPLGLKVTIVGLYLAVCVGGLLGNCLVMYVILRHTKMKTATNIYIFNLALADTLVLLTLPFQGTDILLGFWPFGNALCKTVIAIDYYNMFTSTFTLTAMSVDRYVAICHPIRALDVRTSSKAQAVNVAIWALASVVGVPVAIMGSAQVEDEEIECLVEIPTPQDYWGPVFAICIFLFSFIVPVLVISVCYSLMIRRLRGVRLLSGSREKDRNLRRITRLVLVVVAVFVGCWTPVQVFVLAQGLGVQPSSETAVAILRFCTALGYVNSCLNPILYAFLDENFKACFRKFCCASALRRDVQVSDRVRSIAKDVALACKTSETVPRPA
UniProt P35372, whole entry, looked up: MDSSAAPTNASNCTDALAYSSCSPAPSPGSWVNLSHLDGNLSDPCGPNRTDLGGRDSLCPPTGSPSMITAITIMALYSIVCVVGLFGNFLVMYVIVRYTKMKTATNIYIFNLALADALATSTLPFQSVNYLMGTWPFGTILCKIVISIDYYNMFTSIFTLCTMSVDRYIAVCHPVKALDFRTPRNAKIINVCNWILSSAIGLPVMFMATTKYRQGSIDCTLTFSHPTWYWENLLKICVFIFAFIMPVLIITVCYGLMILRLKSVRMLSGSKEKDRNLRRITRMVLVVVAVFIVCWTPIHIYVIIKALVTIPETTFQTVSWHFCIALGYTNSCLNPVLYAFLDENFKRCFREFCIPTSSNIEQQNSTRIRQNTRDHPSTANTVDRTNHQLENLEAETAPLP

Test [1] deals with Mus musculus. Nature of the test: Antinociceptive activity in orally dosed NMRI mouse assessed as increase in latency for tail withdrawal from radiant heat source by tail flick test.
Test [2] addresses Nociceptin receptor (Homo sapiens) (UniProt P41146). The test is described as follows: Agonist activity at human recombinant NOP receptor expressed in CHO-K1 cells assessed as stimulation of [35S]GTPgammaS binding by scintillation proximity assay relative to nociceptin.
The test system of test [3] is Mus musculus. Nature of the test: Antinociceptive activity in iv dosed NMRI mouse assessed as increase in latency for tail withdrawal from radiant heat source by tail flick test. (Hot-plate and tail-flick tests time the reaction to a heat stimulus.)
For test [4], the system named is Mus musculus. Nature of the test: Antinociceptive activity in CD1 mouse assessed as reduction in thermal hyperalgesia at 2.1 nmol/kg, iv by hot plate test.
Test [5] relates to Mus musculus. The test is described as follows: Antinociceptive activity in CD1 mouse model of streptozotocin induced diabetic polyneuropathy assessed as reduction in thermal hyperalgesia at 2.1 nmol/kg, iv by hot plate test.
For test [6], the target named is Mu-type opioid receptor (Homo sapiens) (UniProt P35372). Nature of the test: Agonist activity at human recombinant MOP receptor expressed in CHO-K1 cells assessed as stimulation of [35S]GTPgammaS binding by scintillation proximity assay relative to DAMGO.

Regarding `CN(C)[C@]1(c2ccccc2)CC[C@]2(CC1)OCCc1c3cc(F)ccc3[nH]c12`, the inhibition entry in test [1] and in test [3] was “Dose-dependent effect” throughout. The Efficacy was 89% in test [2] and 104% in test [6]. The inhibition result in test [4] is “inactive”. The inhibition entry in test [5] is “Active”.

The values are drawn from ChEMBL document CHEMBL3352090, “Discovery of a Potent Analgesic NOP and Opioid Receptor Agonist: Cebranopadol” (2014).
